In patent US7192924B2, “Corticotropin releasing factor 2 receptor agonists” (priority 2002, dated 2007):

What was measured:
CRF2R = biological target: T1, CRF2R (Homo sapiens, UniProt Q13324); assay: CRF2R agonist activity (EC50, Emax), called comparative CRF binding; assay type: cell-based
T1 sequence (Q13324 1-411): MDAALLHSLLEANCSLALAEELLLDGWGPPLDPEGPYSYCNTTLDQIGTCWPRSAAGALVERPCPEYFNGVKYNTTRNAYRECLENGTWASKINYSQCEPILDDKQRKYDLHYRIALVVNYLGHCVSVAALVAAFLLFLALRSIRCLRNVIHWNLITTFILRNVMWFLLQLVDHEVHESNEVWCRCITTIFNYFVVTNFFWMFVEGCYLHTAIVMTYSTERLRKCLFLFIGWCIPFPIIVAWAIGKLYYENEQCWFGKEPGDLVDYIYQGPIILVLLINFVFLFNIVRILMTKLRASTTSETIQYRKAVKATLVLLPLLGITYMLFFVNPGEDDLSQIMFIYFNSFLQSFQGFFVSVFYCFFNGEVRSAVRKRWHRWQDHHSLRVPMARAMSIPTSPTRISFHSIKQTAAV
Method in brief: (§1)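 Cells expressing only CRF1R or CRF2R (recombinant, or with the other receptor disabled or its signal subtracted) were treated with peptide or vehicle control. Activation was read as cAMP induction in cell lysates or via a cAMP-responsive-element reporter gene.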

CRF1R = biological target: T2, CRF1R (Homo sapiens, UniProt P34998); assay: CRF1R agonist activity (EC50, Emax), called comparative CRF binding; assay type: cell-based
T2 sequence (P34998 24-415): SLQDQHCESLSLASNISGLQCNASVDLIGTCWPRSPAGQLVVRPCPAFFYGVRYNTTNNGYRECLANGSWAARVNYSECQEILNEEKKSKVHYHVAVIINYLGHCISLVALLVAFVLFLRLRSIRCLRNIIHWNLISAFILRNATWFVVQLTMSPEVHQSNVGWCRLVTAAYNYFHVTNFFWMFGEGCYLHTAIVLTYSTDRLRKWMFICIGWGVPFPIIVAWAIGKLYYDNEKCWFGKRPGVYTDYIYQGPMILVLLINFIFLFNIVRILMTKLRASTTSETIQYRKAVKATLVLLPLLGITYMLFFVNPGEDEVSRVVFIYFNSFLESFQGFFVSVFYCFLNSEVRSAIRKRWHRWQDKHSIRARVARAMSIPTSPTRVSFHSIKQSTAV
Method in brief: as §1

SMILES | EC50 (CRF2R; read-out: CRF2R EC50) | EC50 (CRF1R; read-out: CRF1R EC50) | EC50 (CRF2R) | EC50 (CRF1R)
CC[C@H](C)[C@H](NC(=O)[C@@H](NC(=O)[C@H](CC(=O)O)NC(=O)[C@H](CC(C)C)NC(=O)[C@H](CC(C)C)NC(=O)[C@H](CC(C)C)NC(=O)[C@H](CCCNC(=N)N)NC(=O)[C@H](CC(N)=O)NC(=O)[C@H](CC(N)=O)NC(=O)[C@H](C)NC(=O)[C@H](C)NC(=O)[C@H](CCC(N)=O)NC(=O)[C@H](CCC(N)=O)NC(=O)[C@H](CCCCN)NC(=O)[C@H](CCC(=O)O)NC(=O)[C@H](CCCCN)NC(=O)[C@H](CCC(=O)O)NC(=O)[C@H](CCC(N)=O)NC(=O)[C@H](CCCCN)NC(=O)[C@H](CCC(=O)O)NC(=O)[C@@H](NC(=O)[C@H](CCC(=O)O)NC(=O)[C@@H](NC(=O)[C@H](CCSC)NC(=O)[C@H](CCCCN)NC(=O)[C@H](CCCNC(=N)N)NC(=O)[C@H](CC(C)C)NC(=O)[C@H](CC(C)C)NC(=O)[C@H](Cc1c[nH]cn1)NC(=O)[C@@H](NC(=O)[C@@H]1CCCN1C(=O)[C@H](CC(C)C)NC(=O)[C@H](CC(=O)O)NC(=O)[C@@H](NC(=O)[C@H](CO)NC(=O)[C@@H](NC(=O)[C@@H]1CCCN1C(=O)[C@@H]1CCCN1C(=O)CNC(=O)[C@@H]1CCC(=O)N1)[C@@H](C)CC)[C@@H](C)CC)[C@@H](C)CC)[C@@H](C)CC)[C@@H](C)CC)[C@@H](C)O)C(N)=O [compound 77] | 43.4 nM | > 100 nM | – | –
CC[C@H](C)[C@H](NC(=O)[C@@H](NC(=O)[C@H](CC(=O)O)NC(=O)[C@H](CC(C)C)NC(=O)[C@H](CC(C)C)NC(=O)[C@H](CC(C)C)NC(=O)[C@H](C)NC(=O)[C@H](CC(N)=O)NC(=O)[C@H](CC(N)=O)NC(=O)[C@H](C)NC(=O)[C@H](C)NC(=O)[C@H](CCC(N)=O)NC(=O)[C@H](CCC(N)=O)NC(=O)[C@H](CCCCN)NC(=O)[C@H](CCC(=O)O)NC(=O)[C@H](CCCCN)NC(=O)[C@H](CCC(=O)O)NC(=O)[C@H](CCC(N)=O)NC(=O)[C@H](CCCCN)NC(=O)[C@H](CCC(=O)O)NC(=O)[C@@H](NC(=O)[C@H](CCC(=O)O)NC(=O)[C@@H](NC(=O)[C@H](CCSC)NC(=O)[C@H](CCCCN)NC(=O)[C@H](CCCNC(=N)N)NC(=O)[C@H](CC(C)C)NC(=O)[C@H](CC(C)C)NC(=O)[C@H](Cc1ccc(O)cc1)NC(=O)[C@H](CC(C)C)NC(=O)[C@@H]1CCCN1C(=O)[C@H](CC(C)C)NC(=O)[C@H](CC(=O)O)NC(=O)[C@@H](NC(=O)[C@H](CO)NC(=O)[C@@H](NC(=O)[C@@H]1CCCN1C(=O)[C@@H]1CCCN1C(=O)CNC(=O)[C@@H]1CCC(=O)N1)[C@@H](C)CC)[C@@H](C)CC)[C@@H](C)CC)[C@@H](C)CC)[C@@H](C)O)C(N)=O [compound 244] | – | – | 8.8 nM | 300 nM
CC[C@H](C)[C@H](NC(=O)[C@@H](NC(=O)[C@H](CC(=O)O)NC(=O)[C@H](CC(C)C)NC(=O)[C@H](CC(C)C)NC(=O)[C@H](CC(C)C)NC(=O)[C@H](CCCNC(=N)N)NC(=O)[C@H](CC(N)=O)NC(=O)[C@@H](NC(=O)[C@@H](NC(=O)[C@H](C)NC(=O)[C@H](CCC(N)=O)NC(=O)[C@H](CCC(N)=O)NC(=O)[C@H](CCCCN)NC(=O)[C@H](CCC(=O)O)NC(=O)[C@H](CCCCN)NC(=O)[C@H](CCC(=O)O)NC(=O)[C@H](CCC(N)=O)NC(=O)[C@H](CCCCN)NC(=O)[C@H](CCC(=O)O)NC(=O)[C@@H](NC(=O)[C@H](CCC(=O)O)NC(=O)[C@@H](NC(=O)[C@H](CCSC)NC(=O)[C@H](CCCCN)NC(=O)[C@H](CCCNC(=N)N)NC(=O)[C@H](CC(C)C)NC(=O)[C@H](CC(C)C)NC(=O)[C@H](CCC(N)=O)NC(=O)[C@H](Cc1ccccc1)NC(=O)[C@@H]1CCCN1C(=O)[C@H](CC(C)C)NC(=O)[C@H](CC(=O)O)NC(=O)[C@@H](NC(=O)[C@H](CO)NC(=O)[C@@H](NC(=O)[C@@H]1CCCN1C(=O)[C@@H]1CCCN1C(=O)CNC(=O)[C@@H]1CCC(=O)N1)[C@@H](C)CC)[C@@H](C)CC)[C@@H](C)CC)[C@@H](C)CC)[C@@H](C)O)[C@@H](C)O)[C@@H](C)O)C(N)=O [compound 13] | – | – | 3.88 nM | 97.7 nM
CC[C@H](C)[C@H](NC(=O)[C@@H](NC(=O)[C@H](CC(=O)O)NC(=O)[C@H](CC(C)C)NC(=O)[C@H](CC(C)C)NC(=O)[C@H](CC(C)C)NC(=O)[C@H](CCCNC(=N)N)NC(=O)[C@H](CC(N)=O)NC(=O)[C@H](CC(N)=O)NC(=O)[C@H](C)NC(=O)[C@H](C)NC(=O)[C@H](CCC(N)=O)NC(=O)[C@H](CCC(N)=O)NC(=O)[C@H](CCCCN)NC(=O)[C@H](CCC(=O)O)NC(=O)[C@H](CCCCN)NC(=O)[C@H](CCC(=O)O)NC(=O)[C@H](CCC(N)=O)NC(=O)[C@H](CCCCN)NC(=O)[C@H](CCC(=O)O)NC(=O)[C@@H](NC(=O)[C@H](CCC(=O)O)NC(=O)[C@@H](NC(=O)[C@H](CCSC)NC(=O)[C@H](CCCCN)NC(=O)[C@H](CCCNC(=N)N)NC(=O)[C@H](CC(C)C)NC(=O)[C@H](CC(C)C)NC(=O)[C@H](C)NC(=O)[C@H](CC(C)C)NC(=O)[C@@H]1CCCN1C(=O)[C@H](CC(C)C)NC(=O)[C@H](CC(=O)O)NC(=O)[C@@H](NC(=O)[C@H](CO)NC(=O)[C@@H](NC(=O)[C@@H]1CCCN1C(=O)[C@@H]1CCCN1C(=O)CNC(=O)[C@@H]1CCC(=O)N1)[C@@H](C)CC)[C@@H](C)CC)[C@@H](C)CC)[C@@H](C)CC)[C@@H](C)O)C(N)=O [compound 308] | – | – | 3.3 nM | 63.5 nM
CC[C@H](C)[C@H](NC(=O)[C@H](CCCNC(=N)N)NC(=O)[C@H](C)NC(=O)[C@H](CC(N)=O)NC(=O)[C@@H](NC(=O)[C@@H](NC(=O)[C@H](C)NC(=O)[C@H](CCC(N)=O)NC(=O)[C@H](CCC(N)=O)NC(=O)[C@H](CCCCN)NC(=O)[C@H](CCC(=O)O)NC(=O)[C@H](CCCCN)NC(=O)[C@H](CCC(=O)O)NC(=O)[C@H](CCC(N)=O)NC(=O)[C@H](CCCCN)NC(=O)[C@H](CCC(=O)O)NC(=O)[C@@H](NC(=O)[C@H](CCC(=O)O)NC(=O)[C@@H](NC(=O)[C@H](CCSC)NC(=O)[C@H](CCCCN)NC(=O)[C@H](CCCNC(=N)N)NC(=O)[C@H](CC(C)C)NC(=O)[C@H](CC(C)C)NC(=O)[C@H](CCC(N)=O)NC(=O)[C@H](Cc1ccccc1)NC(=O)[C@@H]1CCCN1C(=O)[C@H](CC(C)C)NC(=O)[C@H](CC(=O)O)NC(=O)[C@@H](NC(=O)[C@H](CO)NC(=O)[C@@H](NC(=O)[C@@H]1CCCN1C(=O)[C@@H]1CCCN1C(=O)CNC(=O)[C@@H]1CCC(=O)N1)[C@@H](C)CC)[C@@H](C)CC)[C@@H](C)CC)[C@@H](C)CC)[C@@H](C)O)[C@@H](C)O)C(=O)N[C@@H](CC(C)C)C(=O)N[C@@H](C)C(=O)N[C@@H](CCCNC(=N)N)C(=O)N[C@H](C(N)=O)C(C)C [compound 148] | – | – | 9.45 nM | 295 nM
CC[C@H](C)[C@H](NC(=O)[C@@H](NC(=O)[C@H](C)NC(=O)[C@H](CC(C)C)NC(=O)[C@H](CC(C)C)NC(=O)[C@H](CC(C)C)NC(=O)[C@H](C)NC(=O)[C@H](CC(N)=O)NC(=O)[C@H](CC(N)=O)NC(=O)[C@H](C)NC(=O)[C@H](C)NC(=O)[C@H](CCC(N)=O)NC(=O)[C@H](CCC(N)=O)NC(=O)[C@H](CCCCN)NC(=O)[C@H](CCC(=O)O)NC(=O)[C@H](CCCCN)NC(=O)[C@H](CCC(=O)O)NC(=O)[C@H](CCC(N)=O)NC(=O)[C@H](CCCCN)NC(=O)[C@H](CCC(=O)O)NC(=O)[C@@H](NC(=O)[C@H](CCC(=O)O)NC(=O)[C@@H](NC(=O)[C@H](CCSC)NC(=O)[C@H](CCCCN)NC(=O)[C@H](CCCNC(=N)N)NC(=O)[C@H](CC(C)C)NC(=O)[C@H](CC(C)C)NC(=O)[C@H](Cc1ccc(O)cc1)NC(=O)[C@@H](NC(=O)[C@@H]1CCCN1C(=O)[C@H](CC(C)C)NC(=O)[C@H](CC(=O)O)NC(=O)[C@@H](NC(=O)[C@H](CO)NC(=O)[C@@H](NC(=O)[C@@H]1CCCN1C(=O)[C@@H]1CCCN1C(=O)CNC(=O)[C@@H]1CCC(=O)N1)[C@@H](C)CC)[C@@H](C)CC)[C@@H](C)O)[C@@H](C)CC)[C@@H](C)CC)[C@@H](C)O)C(N)=O [compound 233] | 46.1 nM | ≥ 1000 nM | – | –
CC[C@H](C)[C@H](NC(=O)[C@@H](NC(=O)[C@H](CC(=O)O)NC(=O)[C@H](CC(C)C)NC(=O)[C@H](CC(C)C)NC(=O)[C@H](CC(C)C)NC(=O)[C@H](CCCNC(=N)N)NC(=O)[C@H](CC(N)=O)NC(=O)[C@H](CC(N)=O)NC(=O)[C@H](C)NC(=O)[C@H](C)NC(=O)[C@H](CCC(N)=O)NC(=O)[C@H](CCC(N)=O)NC(=O)[C@H](CCCCN)NC(=O)[C@H](CCC(=O)O)NC(=O)[C@H](CCCCN)NC(=O)[C@H](CCC(=O)O)NC(=O)[C@H](CCC(N)=O)NC(=O)[C@H](CCCCN)NC(=O)[C@H](CCC(=O)O)NC(=O)[C@@H](NC(=O)[C@H](CCC(=O)O)NC(=O)[C@@H](NC(=O)[C@H](CCSC)NC(=O)[C@H](CCCCN)NC(=O)[C@H](CCCNC(=N)N)NC(=O)[C@H](CC(C)C)NC(=O)[C@H](CC(C)C)NC(=O)[C@H](Cc1c[nH]cn1)NC(=O)[C@H](CCC(N)=O)NC(=O)[C@@H]1CCCN1C(=O)[C@H](CC(C)C)NC(=O)[C@H](CC(=O)O)NC(=O)[C@@H](NC(=O)[C@H](CO)NC(=O)[C@@H](NC(=O)[C@@H]1CCCN1C(=O)[C@@H]1CCCN1C(=O)CNC(=O)[C@@H]1CCC(=O)N1)[C@@H](C)CC)[C@@H](C)CC)[C@@H](C)CC)[C@@H](C)CC)[C@@H](C)O)C(N)=O [compound 207] | – | – | 61.4 nM | 466 nM

Where two headings read alike, the source gives them in different places.
